Results as given in patent publication US20200347147A1.

Protein sequences, listed by entry. Tags and fused reporters are not part of them. Residues count along the entry.
UniProt P06731, 35-685 limits assumed: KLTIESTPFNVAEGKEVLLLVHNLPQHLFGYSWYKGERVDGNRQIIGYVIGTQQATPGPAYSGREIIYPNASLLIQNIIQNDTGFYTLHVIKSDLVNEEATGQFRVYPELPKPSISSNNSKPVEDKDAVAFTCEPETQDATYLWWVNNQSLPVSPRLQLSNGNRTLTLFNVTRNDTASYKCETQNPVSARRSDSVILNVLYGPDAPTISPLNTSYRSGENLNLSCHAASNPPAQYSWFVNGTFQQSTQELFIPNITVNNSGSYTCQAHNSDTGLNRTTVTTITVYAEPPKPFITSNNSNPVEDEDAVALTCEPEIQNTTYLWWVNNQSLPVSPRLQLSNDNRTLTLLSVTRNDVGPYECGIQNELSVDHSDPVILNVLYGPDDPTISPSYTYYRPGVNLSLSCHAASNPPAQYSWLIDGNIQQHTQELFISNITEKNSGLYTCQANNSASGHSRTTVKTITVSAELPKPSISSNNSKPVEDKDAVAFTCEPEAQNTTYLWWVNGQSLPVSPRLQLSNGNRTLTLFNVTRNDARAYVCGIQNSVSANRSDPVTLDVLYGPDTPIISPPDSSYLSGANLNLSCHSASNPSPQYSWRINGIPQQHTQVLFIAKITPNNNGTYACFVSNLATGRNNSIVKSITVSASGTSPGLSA

Molecular target: human Carcinoembryonic antigen (CEA), also known as Carcinoembryonic antigen-related cell adhesion molecule 5 (human) (UniProt P06731)
Assay: flow cytometry on CEA-expressing MKN45 cells, PE anti-human Fc secondary

Parental chimeric T84.66 IgG (antibody)
EC50: 0.99 µg/mL
